Reference: ChEMBL document CHEMBL5532642, “Targeting protein kinases for the treatment of Alzheimer's disease: Recent progress and future perspectives” (Eur J Med Chem, 2023)

Protein sequences, listed by entry. Tags and fused reporters are not part of them. Lines headed by an entry give the natural chain unless they say otherwise; changes in a name come on top.
UniProt P45984: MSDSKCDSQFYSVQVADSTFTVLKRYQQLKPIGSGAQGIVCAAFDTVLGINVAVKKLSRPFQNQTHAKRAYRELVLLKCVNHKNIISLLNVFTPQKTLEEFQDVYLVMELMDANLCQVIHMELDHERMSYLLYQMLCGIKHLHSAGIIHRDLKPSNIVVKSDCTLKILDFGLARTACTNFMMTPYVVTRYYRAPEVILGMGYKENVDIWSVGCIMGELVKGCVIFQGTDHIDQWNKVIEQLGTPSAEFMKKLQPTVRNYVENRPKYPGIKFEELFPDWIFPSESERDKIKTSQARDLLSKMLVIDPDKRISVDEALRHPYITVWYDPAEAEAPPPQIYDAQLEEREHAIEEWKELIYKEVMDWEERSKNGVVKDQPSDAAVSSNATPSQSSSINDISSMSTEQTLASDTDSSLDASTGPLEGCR
UniProt P53779: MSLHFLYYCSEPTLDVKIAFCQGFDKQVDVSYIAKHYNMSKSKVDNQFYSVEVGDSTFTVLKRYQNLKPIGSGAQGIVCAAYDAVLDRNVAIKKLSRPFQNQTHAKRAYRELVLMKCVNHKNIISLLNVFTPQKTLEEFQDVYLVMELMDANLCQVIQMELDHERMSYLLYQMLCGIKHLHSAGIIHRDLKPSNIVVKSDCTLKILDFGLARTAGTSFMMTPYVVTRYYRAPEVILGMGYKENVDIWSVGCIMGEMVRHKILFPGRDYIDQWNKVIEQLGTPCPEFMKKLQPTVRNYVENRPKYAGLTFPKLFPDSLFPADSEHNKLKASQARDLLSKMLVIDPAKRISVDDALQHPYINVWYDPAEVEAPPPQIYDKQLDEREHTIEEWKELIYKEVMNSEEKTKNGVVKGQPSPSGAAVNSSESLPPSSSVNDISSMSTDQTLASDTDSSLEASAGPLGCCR
UniProt P27361, whole entry: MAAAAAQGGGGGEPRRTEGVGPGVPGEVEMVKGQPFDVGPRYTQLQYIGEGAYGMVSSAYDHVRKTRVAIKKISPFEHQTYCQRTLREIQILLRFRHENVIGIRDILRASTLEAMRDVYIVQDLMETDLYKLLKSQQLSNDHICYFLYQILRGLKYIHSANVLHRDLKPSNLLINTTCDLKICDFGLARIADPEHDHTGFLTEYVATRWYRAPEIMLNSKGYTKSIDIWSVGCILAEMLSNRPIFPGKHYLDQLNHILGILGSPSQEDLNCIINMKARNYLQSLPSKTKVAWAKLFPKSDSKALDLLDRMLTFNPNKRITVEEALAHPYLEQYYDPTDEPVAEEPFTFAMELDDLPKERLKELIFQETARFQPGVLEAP
UniProt P28482, whole entry: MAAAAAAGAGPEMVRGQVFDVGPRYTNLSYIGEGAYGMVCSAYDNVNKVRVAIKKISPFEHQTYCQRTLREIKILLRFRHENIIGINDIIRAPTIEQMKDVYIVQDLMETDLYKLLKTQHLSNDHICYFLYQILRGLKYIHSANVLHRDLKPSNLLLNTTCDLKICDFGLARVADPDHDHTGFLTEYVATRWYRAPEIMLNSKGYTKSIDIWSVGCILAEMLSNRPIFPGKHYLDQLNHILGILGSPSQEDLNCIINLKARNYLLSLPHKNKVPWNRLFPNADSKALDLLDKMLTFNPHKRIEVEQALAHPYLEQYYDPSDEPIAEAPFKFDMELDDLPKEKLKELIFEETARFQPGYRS

Tests used:
[1] = biological target: Mitogen-activated protein kinase 9 (Homo sapiens, UniProt P45984); assay: Inhibition of JNK2 (unknown origin) by HotSpot assay
[2] = biological target: Mitogen-activated protein kinase 10 (Homo sapiens, UniProt P53779); assay: Inhibition of JNK3 (unknown origin)
[3] = biological target: Mitogen-activated protein kinase 3 (Homo sapiens, UniProt P27361); assay: Inhibition of human recombinant ERK1
[4] = biological target: Mitogen-activated protein kinase 1 (Homo sapiens, UniProt P28482); assay: Inhibition of human recombinant ERK2

Row | Compound | IC50 [1] [nM] | IC50 [2] [nM] | IC50 [3] [nM] | IC50 [4] [nM]
1 | NC(=O)N1Cc2nc(-c3ccc(Cl)c(Cl)c3)n(-c3ccnc(NC4CCN(C(=O)C5CC5)C4)n3)c2C1 (centres undefined) | 225 | 2.69 |  | 
2 | Nc1n[nH]c2nnc(-c3c(-c4ccccc4)nn4ccccc34)cc12 |  |  | 510 | 330
